The results in this text go back to patent US8637568B2, “Serotonin reuptake inhibitors” (Theravance, Inc., priority 2010, dated 2014).

By UniProt entry, the sequences of proteins in these tests, tags left out.
UniProt P31645, whole entry: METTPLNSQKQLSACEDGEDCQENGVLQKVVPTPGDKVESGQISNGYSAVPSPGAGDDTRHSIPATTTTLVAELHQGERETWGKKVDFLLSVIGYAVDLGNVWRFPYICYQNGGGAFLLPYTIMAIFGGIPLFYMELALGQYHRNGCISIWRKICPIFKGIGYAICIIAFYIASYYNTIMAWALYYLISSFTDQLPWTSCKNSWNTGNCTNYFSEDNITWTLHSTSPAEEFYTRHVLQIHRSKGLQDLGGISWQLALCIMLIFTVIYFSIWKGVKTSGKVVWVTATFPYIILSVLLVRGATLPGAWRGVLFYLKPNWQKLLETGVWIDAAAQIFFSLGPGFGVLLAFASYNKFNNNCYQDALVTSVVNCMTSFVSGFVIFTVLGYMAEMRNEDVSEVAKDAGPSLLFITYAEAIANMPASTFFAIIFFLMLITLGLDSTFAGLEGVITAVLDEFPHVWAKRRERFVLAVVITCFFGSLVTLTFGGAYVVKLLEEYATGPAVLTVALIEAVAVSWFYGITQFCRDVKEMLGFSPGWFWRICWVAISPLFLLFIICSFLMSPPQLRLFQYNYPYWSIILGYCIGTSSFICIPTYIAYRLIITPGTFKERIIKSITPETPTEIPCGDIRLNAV

The target of test [1] is T1, human recombinant SERT (HEK293-hSERT cells) (Homo sapiens, UniProt P31645).
T1 construct: expressed in transfected cells; host or cells: HEK293 (stably transfected), whole cells
Kind of test: hSERT neurotransmitter uptake assay. Conditions: serotonin reuptake inhibition in HEK293-hSERT cells. Format: cell-based. The procedure:
HEK293 cells stably-transfected with human recombinant SERT (HEK293-hSERT) were grown in Dulbecco's Modified Eagle's Medium supplemented with 10% dialyzed fetal bovine serum, 100 µg/ml penicillin, 100 µg/ml streptomycin, 2 mM L-glutamine, and 250 μg/ml of the aminoglycoside antibiotic G418. Cells were incubated in a 5% CO2, humidified incubator at 37° C.
In pre-incubation studies, test compound was added to cells for 30 minutes at 37° C. prior to the addition of fluorescent substrate. […] For real-time measurements, compounds were either preincubated (as above) or mixed with substrate prior to addition, and kinetic measurements, relative fluorescence units (RFU integrated over 0.5 ms),were made using a cycle time of 1 min.

The target of test [2] is T2, human recombinant serotonin transporter (hSERT) (Homo sapiens, UniProt P31645).
T2 construct: expressed in transfected cells; host or cells: HEK-293 (stably transfected), membrane preparation
Kind of test: hSERT binding assay (3H-citalopram membrane radioligand binding). Conditions: inhibition of 3H-citalopram binding to membranes from HEK-293 cells expressing hSERT; Cheng-Prusoff. The method, then: Membrane radioligand binding assays were used to measure inhibition of labeled ligand (^3H-citalopram) binding to membranes prepared from cells expressing the human recombinant serotonin transporter (hSERT) in order to determine the pKi values of test compounds at the transporters.
Recombinant human embryonic kidney (HEK-293) derived cell lines stably transfected with hSERT, were grown in Dulbecco's Modified Eagle's Medium supplemented with 10% dialyzed fetal bovine serum, 100 μg/ml penicillin, 100 μg/ml streptomycin, 2 mM L-glutamine and 250 µg/ml of the aminoglycoside antibiotic G418, in a 5% CO2 humidified incubator at 37° C. […] Protein concentration of the membrane suspension was determined using a Bio-Rad Bradford Protein Assay kit. […]
Stock solutions (10 mM in DMSO) of test compound were prepared and serial dilutions made using Dilution Buffer (50 mM Tris-HCl, 120 mM NaCl, 5 mM KCl, pH 7.4, 0.1% bovine serum albumin, 400 μM ascorbic acid). Non-specific radioligand binding was determined in the presence of 1 μM duloxetine (in Dilution Buffer).
Following a 60 minute incubation at 22° C. […] Plates were dried overnight at room temperature, −45 μl of MicroScint™-20 (Perkin Elmer) added and bound radioactivity quantitated via liquid scintillation spectroscopy. […]

As to “N-[(S)-2-(S)-Pyrrolidin-3-yl-2-(4-trifluoromethylphenoxy)ethyl]sulfonylurea [Example 3-9]”, in test [1], the “SERT pIC50” value is “≧8.0”. The “SERT pKi” value in test [2] is “≧8.0”.
